Measured values from US8592579B2, “Pyrrolotriazine kinase inhibitors” (Bristol-Myers Squibb Company, priority 2006, dated 2013).

Test system: IGF1R-Sal tumors
Assay: IGF-1R Sal Tumor Model
Settings: Mus musculus, po, 96 h, read-out: IGF-1R Sal % TGI

## CO[C@H]1C[C@@H](C(=O)Nc2cnccn2)N(c2nc(Nc3cc(C4CC4)[nH]n3)c3cccn3n2)C1 [Example 255, (2S,4S)-1-(4-(5-cyclopropyl-1H-pyrazol-3-ylamino)pyrrolo[1,2-f][1,2,4]triazin-2-yl)-4-methoxy-N-(pyrazin-2-yl)pyrrolidine-2-carboxamide]
  inhibition in vivo at 25 mg/kg: 112%
